Where two headings read alike, the source gives them in different places.
Target: human SGLT1 (Homo sapiens (Human), UniProt P13866)
Test: SGLT1 inhibitory activity: 14C-AMG uptake into CHO-K1 cell line stably expressing human SGLT1
Format: cell-based
[1] = read-out: human SGLT1 IC50, CHO-K1 cells stably expressing human SGLT1

Chains of the proteins cited; added tags and fusions are not shown.
UniProt P13866, whole entry: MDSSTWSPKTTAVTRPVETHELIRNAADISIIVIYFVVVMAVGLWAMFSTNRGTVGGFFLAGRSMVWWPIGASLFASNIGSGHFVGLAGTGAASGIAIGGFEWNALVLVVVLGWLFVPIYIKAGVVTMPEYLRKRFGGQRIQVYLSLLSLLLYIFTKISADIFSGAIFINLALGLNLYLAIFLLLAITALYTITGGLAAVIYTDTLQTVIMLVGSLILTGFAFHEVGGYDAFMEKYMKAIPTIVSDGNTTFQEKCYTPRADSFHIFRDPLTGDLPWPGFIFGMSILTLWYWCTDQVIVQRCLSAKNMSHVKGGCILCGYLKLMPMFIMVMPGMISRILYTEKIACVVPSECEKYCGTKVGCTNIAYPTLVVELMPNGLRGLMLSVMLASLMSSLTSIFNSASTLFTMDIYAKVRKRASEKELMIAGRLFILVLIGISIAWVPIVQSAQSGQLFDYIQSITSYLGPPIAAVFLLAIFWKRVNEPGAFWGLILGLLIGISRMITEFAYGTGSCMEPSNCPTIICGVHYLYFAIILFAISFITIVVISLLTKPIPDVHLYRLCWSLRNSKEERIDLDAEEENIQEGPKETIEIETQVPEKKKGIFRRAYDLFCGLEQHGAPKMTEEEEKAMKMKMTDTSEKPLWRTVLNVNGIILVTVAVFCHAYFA

IC50 [1] [nM]	Compound	IC50 (read-out: human SGLT1 IC50, CHO-K1 cells expressing human SGLT1) [nM]
22	CCOC(C)(C)c1cccc(-c2cc(NC(=O)[C@@H]3CNC(=O)C3)nn2-c2ccccc2)c1	–
4.5	O=C1C[C@H](C(=O)Nc2cc(-c3cccc(COCC(F)(F)F)c3)n(-c3cccc(OCc4ccccc4)c3)n2)CN1	–
37	O=C1C[C@H](C(=O)Nc2cc(-c3cccc(COCC(F)(F)F)c3)n(-c3cccc(O)c3)n2)CN1	–

Further lines, the compound ahead of its results:

Compound	IC50 [1] [nM]	IC50 (read-out: human SGLT1 IC50, CHO-K1 cells expressing human SGLT1) [nM]
COCC(C)(C)c1cccc(-c2cc(NC(=O)[C@@H]3CNC(=O)C3)nn2-c2ccccc2)c1	31	–
Cc1cccc(-n2nc(NC(=O)[C@H]3CNC(=O)C3)cc2-c2cccc(OC(F)(F)F)c2)c1	–	4.5

Source: patent US8846746B2, “Pyrazole compound and pharmaceutical use thereof” (Japan Tobacco Inc., priority 2011, dated 2014)
